# Apparent affinities of Ab-14 variants for a coronavirus HR2 peptide

The target is the same throughout: PDVDLGDISGINAS, from the HR2 region of SARS-CoV-2 spike.

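The variants were designed computationally from a first round of random CDR variants and then made and measured. Several design methods are mixed in this list. The scFvs were displayed on barcoded MATa yeast, the peptide on MATalpha yeast. Pairs that bind mate more often; barcode pairs of the diploids are counted by sequencing. A regression on co-assayed BCL2-family reference pairs converts the normalised counts of each replicate to an apparent Kd. The assay was run in six technical replicates.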

Parent scFv Ab-14: VH joined to VL by three GGGGS repeats. Changes lie in the heavy chain CDRs alone.
VH: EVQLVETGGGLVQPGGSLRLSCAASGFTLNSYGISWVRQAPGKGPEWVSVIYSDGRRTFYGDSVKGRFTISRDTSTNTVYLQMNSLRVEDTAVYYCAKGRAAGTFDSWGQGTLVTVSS
VL: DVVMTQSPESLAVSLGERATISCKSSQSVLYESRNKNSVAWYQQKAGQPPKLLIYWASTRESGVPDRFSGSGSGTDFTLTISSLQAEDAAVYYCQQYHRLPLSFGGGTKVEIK

Each variant is given by its three heavy chain CDRs, as the data file delimits them; those of the parent are GFTLNSYGIS, VIYSDGRRTFYGDSVK, GRAAGTFDS.
This list holds designs with more than six substitutions.
Values are apparent Kd, the geometric mean of the replicates that gave a signal; lower means stronger binding.
An entry "no signal" has no value in the source: the pair was not observed among the diploids in any replicate. This suggests poor binding but is not conclusive.
The range of this assay differs from that of the first round, and the authors advise against merging the two.

* GFNLNEYGIS | VIYADGVRTFYADSVK | GQQAGTFDM: 410 pM (6 of 6 replicates)
* GFDINEMGIS | VIYADGQRLFYAQEVK | GENTGSFDM: no signal (0 of 6 replicates)
* GFDLNEYGIS | VIYADGSRTFYADSVK | GQTAGTFDV: no signal (0 of 6 replicates)
* GFDLNEYGIS | VIYADGQRTFYADSVK | GENAGTFDQ: 350 pM (6 of 6 replicates)
* GNDIQEYGIS | VIYADGQRVNAASQVK | GKQAGTFNL: 91 nM (1 of 6 replicates)
* GFNLDEYGIS | VIYADGMRTAYADSVK | GNVAGTFDV: 290 pM (6 of 6 replicates)
* GFDLNEYGIS | VIYADGMRTAYADDVK | GTNAGTFDQ: 360 pM (6 of 6 replicates)
* GFDLEEYGIS | VIYADGRRTYAVDAVK | GHADDLGLV: 5.5 µM (1 of 6 replicates)
* GFNLDEYGIS | VIYADGRRTFYADSVK | GEHAGTFDV: 9.1 nM (2 of 6 replicates)
* GFDLDEYGIS | VIYADGMRTAYSDSVK | GTNAGTFDM: 140 pM (6 of 6 replicates)
* GFDLNEYGIS | VIYADGMRTAYADSVK | GTNAGTFDV: 450 pM (6 of 6 replicates)
* GFDLNEYGIS | VIYADGRRTFYTDSVK | GQIAGTFDQ: 220 pM (6 of 6 replicates)
* GFDLNEYGIS | VIYADGRRTFYADSVK | GNTAGTFIS: 1.6 nM (6 of 6 replicates)
* GFNLDEYGVS | VIYADGFRVAYAESVK | GLQQFGFTI: no signal (0 of 6 replicates)
* GFDLNEYGIS | VIYADGQRTAYADKVK | GEVAGTFDV: 380 pM (6 of 6 replicates)
* GFDLDEYGIS | VIYADGMRSKYADSVK | GTTGGTIEA: no signal (0 of 6 replicates)
* GFDLNEYGIS | VIYADGMRTYYADDVK | GNEAGTFDV: 480 pM (6 of 6 replicates)
* GFDLDEYGIS | VIYADGMRTVYADSVK | GENAGTFDV: 360 pM (6 of 6 replicates)
* GVNLDEYGIS | VIYADGVRQHYTDSVK | GTEGDFGVV: 320 pM (6 of 6 replicates)
* GFDLNEYGIS | VIYADGKRTAYADSVK | GQNAGTFDQ: 480 pM (6 of 6 replicates)
* GFDLEEYGVS | VIYADGQRFAYAQDFK | GEAAGAFDL: 2.4 nM (6 of 6 replicates)
* GQGLDEYGIS | VIYADGVRTYYTPNVK | GQVLGVINI: no signal (0 of 6 replicates)
* GFNLDEYGIS | VIYADGTRTNYLDTVK | GVTGATFIQ: no signal (0 of 6 replicates)
* GMDLNEYGIS | VIYADGLRTAYINQVK | GKQSVIVGH: no signal (0 of 6 replicates)
* GFTIDEYGIS | VIYADGSRVAYDEKFK | GMLVGTFDQ: no signal (0 of 6 replicates)
* GFDLNEYGIS | VIYADGRRTAYIDSVK | GNQAGTFDI: 1.9 nM (6 of 6 replicates)
* GFDLEDYGIS | VIYADGKRTFYADSVK | GNVAGTFDV: 280 pM (6 of 6 replicates)
* GFDINEYGIS | VIYADGRRTAYADSVK | GEAAGTFDL: 410 pM (6 of 6 replicates)
* GFDINEYGIS | VIFADGMRTAYLNSVK | GQMAGLFIM: no signal (0 of 6 replicates)
* GFDLDECGIS | VIYADGRRQMYAVSFK | GEIGGTFLM: no signal (0 of 6 replicates)
* GFDLNEYGIS | VIYADGVQRFYTDDVK | GGNQGTFVL: 460 nM (1 of 6 replicates)
* GFDLNEYGIS | VIYADGRRTAYSDKVK | GNFGGTFDI: 4.6 nM (6 of 6 replicates)
* GFDLNEYGIS | VIYADGIRTAYADDVK | GEVAGTFDV: 250 pM (6 of 6 replicates)
* GFDLDEYGIS | VIYADGQRTFYSDSVK | GSTAGTFDV: 270 pM (6 of 6 replicates)
* GFDLDEYGIS | VIYADGSRTAYADSVK | GNEAGTFDL: 810 pM (1 of 6 replicates)
* GFDLNEYGIS | VIYADGKRTAYSDSVK | GQNAGTFDM: 900 pM (6 of 6 replicates)
* GFDLNEYGIS | VIYADGRRTFYIDKVK | GENAGTFDV: 660 pM (6 of 6 replicates)
* GFDLDEYGIS | VIYADGSRTAYADSVK | GNVAGTFDQ: 680 pM (6 of 6 replicates)
* GFDLNEYGIS | VIYADGMRTSYADSVK | GETAGTFDQ: 840 pM (6 of 6 replicates)
* GFDLEEFGIN | VIYADGSRKVYTDAVK | GEVSGDFDK: no signal (0 of 6 replicates)
* GFDLNEYGIS | VIYADGRRTFYTDSVK | GNMAGTFLV: 3.3 nM (6 of 6 replicates)
* GFDLNEYGIS | VIYADGMRTAYADSVK | GENAGTFDV: 710 pM (4 of 6 replicates)
* GFGLDEYGIS | VIYADGQRVVYTQDVK | GLYTFVKGI: no signal (0 of 6 replicates)
* EFDLMEYGVS | VIYADGHRTFYAEHVK | GTNSGVFDI: no signal (0 of 6 replicates)
* GFDLNEYGIS | VIYADGRRTFYVDSVK | GVNAGTFDI: 87 pM (6 of 6 replicates)
* GFDLNEYGIS | VIYADGMRTFYADSVK | GKNAGTILV: no signal (0 of 6 replicates)
* GFTIGEYGIS | VIYADGERTAYSNAVK | GNMAGTFSF: 620 pM (6 of 6 replicates)
* GFDLNEYGIS | VIYADGMRTYYIDSVK | GNVAGTFDV: 820 pM (6 of 6 replicates)
* GFSLNEYGIS | VIYADGKRSFYADSVK | GLISGFFDI: 39 nM (1 of 6 replicates)
* GFDLNEYGIS | VIYADGQRTAYADSVK | GKAAGTFDS: 310 pM (6 of 6 replicates)
* GFDLDEYGIS | VIYADGRRTAYTDSVK | GQNAGTFDV: 200 pM (6 of 6 replicates)
* GFDLNEYGIS | VIYADGVRTSYVDSVK | GNVAGTFDV: 460 pM (6 of 6 replicates)

The opening 3 entries, copied out:

| CDR-H1 | CDR-H2 | CDR-H3 | Kd (apparent) | seen in |
|---|---|---|---|---|
| GFNLNEYGIS | VIYADGVRTFYADSVK | GQQAGTFDM | 410 pM | 6 of 6 |
| GFDINEMGIS | VIYADGQRLFYAQEVK | GENTGSFDM | no signal | 0 of 6 |
| GFDLNEYGIS | VIYADGSRTFYADSVK | GQTAGTFDV | no signal | 0 of 6 |

The authors averaged sequences with at least three values out of six and counted those with two or fewer as poor binders.
Of ten entries with the parent sequence, four were seen in most replicates (averages 2.2 nM to 240 nM), three in one and three in none, so single entries are noisy.
As a blank, each scFv also met three strains without target: over all heavy chain designs, 1% of these pairings were detected, typically at 120 nM and seldom below 7.0 nM.

The measurements come from Li et al. 2023 (doi:10.1038/s41467-023-39022-2) through the FLAb antibody collection.